Assay results reported in patent US11542293B2, “Sting modulator compounds, and methods of making and using” (Takeda Pharmaceutical Company Limited, priority 2017, dated 2023).

test system: THP1-Dual cells (ISG54 promoter Lucia luciferase reporter); assay: THP-1 Dual Lucia Reporter Gene Assay; type: cell-based, human; settings: Homo sapiens, THP1-Dual, 20 h, Lucia luciferase signal induction, 20 hours at 37° C., read-out: Cellular THP 1 EC50
Description: THP1-Dual™ cells (InvivoGen #thpd-nfis) were derived from the human THP-1 monocyte cell line by stable integration of the Lucia luciferase gene, a secreted luciferase reporter gene, under the control of an ISG54 (interferon-stimulated gene) minimal promoter in conjunction with five interferon (IFN)-stimulated response elements. […] The cell plates were dosed with 62.5 nL of the testing compounds, and then incubated at 37° C. for 20 hours. At the end of the incubation, 15 μL/well of the QUANTI-Luc™ (InvivoGen #rep-q1c1) were added, and luminescence was measured immediately using the LeadSeeker.
Compound concentration versus percent signal induction curves were fitted to generate EC50 values.

SMILES	EC50 [µM]
Nc1nc2c(ncn2[C@@H]2O[C@@H]3COP(=O)(O)O[C@H]4C[C@H](Nc5ccncn5)C[C@@H]4COP(=O)(O)O[C@@H]2[C@@H]3O)c(=O)[nH]1 [Compound I-6, 2-amino-9-[(5R,7R,8R,12aR,14R,15aS,16R)-2,10,16-trihydroxy-2,10-dioxido-14-(pyrimidin-4-ylamino)decahydro-5,8-methanocyclopenta[1][1,3,6,9,11,2,10]pentaoxadiphosphacyclotetradecin-7-yl]-1,9-dihydro-6H-purin-6-one]	10 to 25
Nc1nc2c(ncn2[C@@H]2O[C@@H]3COP(=O)(O)O[C@@H]4[C@@H](COP(=O)(O)O[C@@H]2[C@@H]3O)C[C@@H](Nc2ccncn2)[C@@H]4O)c(=O)[nH]1 [Compound I-7, 2-amino-9-[(5R,7R,8R,12aR,14R,15S,15aR,16R)-2,10,15,16-tetrahydroxy-2,10-dioxido-14-(pyrimidin-4-ylamino)decahydro-5,8-methanocyclopenta[1][1,3,6,9,11,2,10]pentaoxadiphosphacyclotetradecin-7-yl]-1,9-dihydro-6H-purin-6-one]	> 25
Nc1nc2c(ncn2[C@@H]2O[C@@H]3COP(=O)(O)O[C@@H]4[C@@H](COP(=O)(O)O[C@@H]2[C@@H]3O)C[C@@H](Nc2ncncc2F)[C@@H]4O)c(=O)[nH]1 [Compound I-8, 2-amino-9-{(5R,7R,8R,12aR,14R,15S,15aR,16R)-14-[(5-fluoropyrimidin-4-yl)amino]-2,10,15,16-tetrahydroxy-2,10-dioxidodecahydro-5,8-methanocyclopenta[1][1,3,6,9,11,2,10]pentaoxadiphosphacyclotetradecin-7-yl}-1,9-dihydro-6H-purin-6-one]	> 25
Nc1nc2c(ncn2[C@@H]2O[C@@H]3COP(=O)(O)O[C@H]4C[C@H](Oc5ccccn5)C[C@@H]4COP(=O)(O)O[C@@H]2[C@@H]3O)c(=O)[nH]1 [Compound I-11, 2-amino-9-[(5R,7R,8R,12aR,14R,15aS,16R)-2,10,16-trihydroxy-2,10-dioxido-14-(pyridin-2-yloxy)decahydro-5,8-methanocyclopenta[1][1,3,6,9,11,2,10]pentaoxadiphosphacyclotetradecin-7-yl]-1,9-dihydro-6H-purin-6-one]	> 25
Nc1cc(O[C@@H]2C[C@@H]3COP(=O)(O)O[C@@H]4[C@H](O)[C@@H](COP(=O)(O)O[C@H]3C2)O[C@H]4n2cnc3c(=O)[nH]c(N)nc32)ncn1 [Compound I-13, 2-amino-9-{(5R,7R,8R,12aR,14R,15aS,16R)-14-[(6-aminopyrimidin-4-yl)oxy]-2,10,16-trihydroxy-2,10-dioxidodecahydro-5,8-methanocyclopenta[1][1,3,6,9,11,2,10]pentaoxadiphosphacyclotetradecin-7-yl}-1,9-dihydro-6H-purin-6-one]	10 to 25
Nc1cc(N[C@@H]2C[C@@H]3COP(=O)(O)O[C@@H]4[C@H](O)[C@@H](COP(=O)(O)O[C@H]3C2)O[C@H]4n2cnc3c(=O)[nH]c(N)nc32)ncn1 [Compound I-14, 2-amino-9-{(5R,7R,8R,12aR,14R,15aS,16R)-14-[(6-aminopyrimidin-4-yl)amino]-2,10,16-trihydroxy-2,10-dioxidodecahydro-5,8-methanocyclopenta[1][1,3,6,9,11,2,10]pentaoxadiphosphacyclotetradecin-7-yl}-1,9-dihydro-6H-purin-6-one]	> 25
Nc1nc2c(ncn2[C@@H]2O[C@@H]3COP(=O)(O)O[C@H]4C[C@H](Oc5cnccn5)C[C@@H]4COP(=O)(O)O[C@@H]2[C@@H]3O)c(=O)[nH]1 [Compound I-15, 2-amino-9-[(5R,7R,8R,12aR,14R,15aS,16R)-2,10,16-trihydroxy-2,10-dioxido-14-(pyrazin-2-yloxy)decahydro-5,8-methanocyclopenta[1][1,3,6,9,11,2,10]pentaoxadiphosphacyclotetradecin-7-yl]-1,9-dihydro-6H-purin-6-one]	> 25
Nc1nc2c(ncn2[C@@H]2O[C@@H]3COP(=O)(O)O[C@H]4C[C@H](Oc5cnsn5)C[C@@H]4COP(=O)(O)O[C@@H]2[C@@H]3O)c(=O)[nH]1 [Compound I-16, 2-amino-9-[(5R,7R,8R,12aR,14R,15aS,16R)-2,10,16-trihydroxy-2,10-dioxido-14-(1,2,5-thiadiazol-3-yloxy)decahydro-5,8-methanocyclopenta[1][1,3,6,9,11,2,10]pentaoxadiphosphacyclotetradecin-7-yl]-1,9-dihydro-6H-purin-6-one]	10 to 25
Nc1nc2c(ncn2[C@@H]2O[C@@H]3COP(=O)(S)O[C@@H]4[C@@H](COP(=O)(S)O[C@@H]2[C@@H]3O)C[C@@H](Nc2ccncn2)[C@@H]4F)c(=O)[nH]1 (stereo partly drawn) [Compound I-20a, 2-amino-9-[(2S,5R,7R,8R,10S,12aR,14R,15S,15aR,16R)-15-fluoro-16-hydroxy-2,10-dioxido-14-(pyrimidin-4-ylamino)-2,10-disulfanyldecahydro-5,8-methanocyclopenta[1][1,3,6,9,11,2,10]pentaoxadiphosphacyclotetradecin-7-yl]-1,9-dihydro-6H-purin-6-one]	1 to 10
Nc1nc2c(ncn2[C@@H]2O[C@@H]3COP(=O)(O)O[C@H]4C[C@H](Nc5ncnc6scnc56)C[C@@H]4COP(=O)(O)O[C@@H]2[C@@H]3O)c(=O)[nH]1 [Compound I-26, 2-amino-9-[(5R,7R,8R,12aR,14R,15aS,16R)-2,10,16-trihydroxy-2,10-dioxido-14-([1,3]thiazolo[5,4-d]pyrimidin-7-ylamino)decahydro-5,8-methanocyclopenta[1][1,3,6,9,11,2,10]pentaoxadiphosphacyclotetradecin-7-yl]-1,9-dihydro-6H-purin-6-one]	> 25
Cc1nccc(N[C@@H]2C[C@@H]3COP(=O)(O)O[C@@H]4[C@H](O)[C@@H](COP(=O)(O)O[C@H]3C2)O[C@H]4n2cnc3c(=O)[nH]c(N)nc32)n1 [Compound I-28, 2-amino-9-{(5R,7R,8R,12aR,14R,15aS,16R)-2,10,16-trihydroxy-14-[(2-methylpyrimidin-4-yl)amino]-2,10-dioxidodecahydro-5,8-methanocyclopenta[1][1,3,6,9,11,2,10]pentaoxadiphosphacyclotetradecin-7-yl}-1,9-dihydro-6H-purin-6-one]	10 to 25
Cn1ccnc(N[C@@H]2C[C@@H]3COP(=O)(O)O[C@@H]4[C@H](O)[C@@H](COP(=O)(O)O[C@H]3C2)O[C@H]4n2cnc3c(=O)[nH]c(N)nc32)c1=O [Compound I-29, 2-amino-9-{(5R,7R,8R,12aR,14R,15aS,16R)-2,10,16-trihydroxy-14-[(4-methyl-3-oxo-3,4-dihydropyrazin-2-yl)amino]-2,10-dioxidodecahydro-5,8-methanocyclopenta[1][1,3,6,9,11,2,10]pentaoxadiphosphacyclotetradecin-7-yl}-1,9-dihydro-6H-purin-6-one]	> 25
Nc1nc2c(nnn2[C@@H]2O[C@@H]3COP(=O)(S)O[C@H]4C[C@H](Oc5ccncn5)C[C@@H]4COP(=O)(S)O[C@@H]2[C@@H]3O)c(=O)[nH]1 (stereo partly drawn) [Compound I-30a, 5-amino-3-[(2S,5R,7R,8R,10S,12aR,14R,15aS,16R)-16-hydroxy-2,10-dioxido-14-(pyrimidin-4-yloxy)-2,10-disulfanyldecahydro-5,8-methanocyclopenta [1][1,3,6,9,11,2,10]pentaoxadiphosphacyclotetradecin-7-yl]-3,6-dihydro-7H-[1,2,3]triazolo[4,5-d]pyrimidin-7-one]	1 to 10
